Results from patent US8017630B2 (priority 2004, dated 2011).

The chains behind the UniProt entries cited, without tags or fusion partners.
UniProt P35372, whole entry: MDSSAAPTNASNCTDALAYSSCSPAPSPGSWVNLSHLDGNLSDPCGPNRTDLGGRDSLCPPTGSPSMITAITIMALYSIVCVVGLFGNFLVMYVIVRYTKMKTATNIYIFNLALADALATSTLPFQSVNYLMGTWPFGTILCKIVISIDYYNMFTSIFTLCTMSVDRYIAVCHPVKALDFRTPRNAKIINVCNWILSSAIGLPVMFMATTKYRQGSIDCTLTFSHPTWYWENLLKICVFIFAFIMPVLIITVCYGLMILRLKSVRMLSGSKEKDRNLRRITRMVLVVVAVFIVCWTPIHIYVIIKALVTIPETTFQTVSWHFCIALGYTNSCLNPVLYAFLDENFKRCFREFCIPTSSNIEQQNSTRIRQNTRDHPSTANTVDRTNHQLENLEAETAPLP
UniProt P41146, whole entry: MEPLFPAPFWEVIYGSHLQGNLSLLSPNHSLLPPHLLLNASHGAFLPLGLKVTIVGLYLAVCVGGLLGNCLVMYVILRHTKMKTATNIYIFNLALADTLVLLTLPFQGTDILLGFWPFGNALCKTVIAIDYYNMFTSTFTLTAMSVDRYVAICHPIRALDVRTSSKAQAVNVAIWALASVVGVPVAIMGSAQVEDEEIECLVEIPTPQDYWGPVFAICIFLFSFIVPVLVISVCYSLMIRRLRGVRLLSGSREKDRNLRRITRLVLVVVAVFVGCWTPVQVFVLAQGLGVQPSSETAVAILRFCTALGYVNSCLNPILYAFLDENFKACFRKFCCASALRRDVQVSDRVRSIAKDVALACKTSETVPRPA

Assays:
[1] = molecular target: human μ-opiate receptor (Homo sapiens, UniProt P35372); experiment: μ-opiate receptor binding assay with [3H]-naloxone; details: for Ki: read-out: ORμNal Ki, Ki from IC50 by Cheng-Prusoff, [3H]-naloxone, CHO-K1 membranes; for ORμNal % 1 μm: % inhibition of specific [3H]-naloxone binding at 1 μmol/l
[2] = molecular target: ORL1 receptor (Homo sapiens, UniProt P41146); experiment: ORL1 receptor binding assay with 3H-nociceptin/orphanin FQ; details: % inhibition at c=1 μM; membranes from recombinant CHO-ORL1 cells
[3] = system: mice; experiment: Tail flick test in mice (analgesia); details: 10 mg/kg intravenous; % of maximum possible antinociceptive effect

Structure (SMILES) | Ki [1] | ORμNal % 1 μm [1] | ORL1% 1 μM [2] | TFMiv % (10 mg/kg) [3]
CC(Cc1c[nH]c2ccccc12)NC(=O)CC1CCC(c2ccccc2)(N(C)C)CC1 (stereo not drawn) | 0.9 nM |  |  | 
CC(Cc1c[nH]c2ccccc12)NC(=O)CC1CCC(c2ccccc2)(N(C)C)CC1.Cl (stereo not drawn) |  | 103% | 98.00% | 
CN(C)C1(c2ccccc2)CCC(CC(=O)NCCCCc2ccccc2)CC1.Cl (stereo not drawn) |  | 101% | 95.00% | 
CN(C)C1(c2ccccc2)CCC(CC(=O)NCCc2c[nH]c3ccccc23)CC1.Cl (stereo not drawn) |  | 91.5% | 98.00% | 90 (10 mg/kg) %
CN(C)C1(c2ccccc2)CCC(CC(=O)NCCc2c[nH]c3ccccc23)CC1 (stereo not drawn) | 0.3 nM |  |  | 
